Consider 1 molecule from ChEMBL document CHEMBL3880431, “Heme oxygenase inhibitors, screening methods for heme oxygenase inhibitors and methods of use of heme oxygenase inhibitors for antimicrobial therapy” (2013).

The term logP denotes a log measure of how a compound divides between an organic and an aqueous phase. Lower therefore signals a more hydrophilic compound.

Molecules are shown by their SMILES.

The data set can be described thus: Lipophilicity, log P of the compound. It is filed as physicochemical. Particulars: octanol/water.

`NCc1ccc([N+](=O)[O-])cc1[N+](=O)[O-]` displayed a lipophilicity (logP) of 1.07.
